This passage reports activity, negative = inhibition results from PubChem BioAssay AID1347417 (National Center for Advancing Translational Sciences (NCATS), 2020).

Only a part is listed here, and it is no random draw. Some of these compounds have results that are not shown, active ones among them. Inconclusive results are not listed. Active and inactive are the calls of the source. Calls follow the shape of the dose curve; as a rule, active = well fitted inhibition curve with a large enough effect; inconclusive = small, poorly fitted or top-dose-only effect; inactive = no such curve, though single readings can be large or run the other way.

A short description of this assay: qHTS Primary assay for Inhibitors of Plasmodium falciparum Dd2 growth in vitro.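 Also: plate controls were DMSO vehicle for no effect and reference drug for full effect; nearly all actives have a fitted effect of over 65% in size.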 The note with it: P. falciparum Dd2 growth, SYBR Green, 72 h; at 28.9 µM (top of the series). The source says:
Malaria, a parasitic disease spread to humans through the bite of a Plasmodium infected Anopheles mosquito, continues to be a global health burden affecting millions of people, with an estimated 228 million cases and 405,000 deaths in 2018. Concerns about safety and limitations of current antimalarial treatments strongly emphasize the need to develop new therapeutic options. The scarce number of chemotypes and validated drug targets with efficacy against the liver stage, have hindered development of new antimalarials. To address this, a chemoprophylactic drug discovery effort was conducted through a combined phenotypic high-throughput asexual blood stage and liver stage screen, providing a robust foundation to identify liver-stage active lead chemotypes. Compounds were initially screened against Plasmodium falciparum Dd2 strain parasites using a in vitro SYBRGreen-1 based 72 hr proliferation assay to identify novel chemotypes to advance to liver stage assays. NIH/NCATS Early Translation Branch Assay Submitter (PI): Anton Simeonov Ph.D.
Malaria-vivax Assay Protocol: PROTOCOL TABLE (as described by Inglese et al., 2007) SEQUENCE No. (e.g., 1, 2, 3, etc.); […] (e.g., Cells, Incubation, Reagent, etc.); VALUE; DESCRIPTION SEQUENCE, Parameter, Description 1; Reagent; 3 uL complete malaria growth medium, 1536 TC treated Black clear bottom plate 2; Controls; 23 nL positive control artesunate (300 nM final) to column 1; Neutral control DMSO to columns 2-4 3; Compound; 23 nL of compounds in dose response concentration (29 uM to 0.5 nM final) 4; Reagent; 5 uL malaria infected red blood cells (2.5% hematocrit final, 0.3% parasitemia 5; Time; 72 hours at 37C (5% O2, 5% CO2, 90% N2; 95% Rh) 6; Reagent; 2 uL lysis buffer/SYBRGreen-1, 25 sec shake immediately following dispense 7; Time; ~16 hours at 37C (5% O2, 5% CO2, 90% N2; 95% Rh) 8; Detector; EnVision (PerkinElmer) bottom read at 485/14nm excitation and 535/25 nm emission NOTES (numbers refer to sequence above): 1; Complete Malaria Growth Media: 1X RPMI-1640 w/L-glutamine, 5.5g/L Albumax II, 367 uM Hypoxanthine, 25 mM HEPES, 0.25% Sodium Bicarbonate, 35 uM Gentamicin sulfate 2; Controls were added using the Kalypsis Pintool (Wako USA) equipped with 1536 pinhead 3; Compounds were added in a 7-point, titration with a high final concentration of 29 uM by Pintool from seven inter-plate titrations of library plates and two DMSO control plates at the beginning and end (see Yasgar et al., 2008). 4; Red blood cells infected with Plasmodium falciparum Dd2 parasites were used. 6; Lysis buffer: 20 mM Tris-HCl, 10 mM EDTA, 0.16% Saponin, 1.6% Triton-X, 10X SYBR Green. REFERENCE: Inglese J, Shamu CE, Guy RK. 2007. Reporting data from high-throughput screening of small-molecule libraries. Nat Chem Biol. doi:10.1038/nchembio0807-438 Yasgar A, Shinn P, Jadhav A, Auld D, Michael S, Zheng W, Austin CP, Inglese J, Simeonov A. 2008. Compound Management for Quantitative High-Throughput Screening. J Lab Autom 13:79-89. doi:10.1016/j.jala.2007.12.004
(In general: Quantitative high-throughput screening tests each substance at several concentrations.)
Regarding `CN(C)C1(CNC(=O)c2ccccc2[N+](=O)[O-])CCCCC1`, the activity, negative = inhibition was inactive: -4.51%.
Next, `CN(C)C1(CNC(=O)c2ccccc2F)CCCCC1`: inactive: -23.9%; `CN(C)C1(CNC(=O)c2cccc(Cl)c2)CCCCC1`: inactive: -10.1%.
As for `CC(C)COc1ccc(C(=O)NCC2(N(C)C)CCCCC2)cc1`, the activity, negative = inhibition was inactive: -30%.
Next, `CC(C)Oc1ccc(C(=O)NCC2(N(C)C)CCCCC2)cc1`: inactive: 5.42%; `COc1cc(C(=O)NCC2(N(C)C)CCCCC2)cc(OC)c1OC`: inactive: -13.8%; `Cc1cccc(C(=O)NCC2(N(C)C)CCCCC2)c1`: inactive: -10%.
The same measure for `COc1ccc(C(=O)NCC2(N(C)C)CCCCC2)cc1Cl`: inactive: -7.05%.
